Yeast mating assay B: variants of the scFv Ab-14

The measurements come from Li et al. 2023 (doi:10.1038/s41467-023-39022-2) through the FLAb antibody collection.

Binding partner: SARS-CoV-2 spike HR2 peptide, sequence PDVDLGDISGINAS.

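Phage display of a naive human antibody library on the peptide gave the parent. The variants were designed computationally from a first round of random CDR variants and then made and measured. Group labels follow the data file (Ctrl: baseline library sampled from a position-specific scoring matrix, with some repeated check sequences; En: ensemble of fine-tuned language models; HC: hill climbing; a sequence that several methods proposed may carry one label only). The scFvs were displayed on barcoded MATa yeast, the peptide on MATalpha yeast. Binding brings cells together so that they mate, and sequencing counts the barcode pairs among the diploids. The ratio of observed to expected reads was calibrated, replicate by replicate, on BCL2-family standards whose Kd was known from biolayer interferometry. There are six technical replicates.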

Each scFv is VH, three GGGGS repeats, VL, as in the parent Ab-14, and differs from it in the CDRs of the light chain only.
VH: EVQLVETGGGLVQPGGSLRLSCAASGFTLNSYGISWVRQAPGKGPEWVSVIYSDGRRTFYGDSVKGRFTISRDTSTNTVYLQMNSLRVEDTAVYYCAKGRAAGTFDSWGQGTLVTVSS
VL: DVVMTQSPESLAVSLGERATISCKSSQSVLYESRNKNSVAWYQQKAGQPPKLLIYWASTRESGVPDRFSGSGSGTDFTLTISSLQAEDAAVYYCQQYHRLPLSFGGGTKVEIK

Variants are written as CDR1, CDR2 and CDR3 of the light chain (limits as in the source). Parent: KSSQSVLYESRNKNSVA, WASTRES, QQYHRLPLS. Values are log10 of the apparent Kd in nM; lower means stronger binding. A pair that was not seen in that replicate is written "n.d."; this usually means weak binding, but a binder can also be missed. A sequence that the file lists under several names has all its replicates listed entry by entry, parted by semicolons. Of ten entries with the parent sequence, four were seen in most replicates (averages 0.34 to 2.37), three in one and three in none, so single entries are noisy. The range of this assay differs from that of the first round, and the authors advise against merging the two. The authors averaged sequences with at least three values out of six and counted those with two or fewer as poor binders. Empty control strains, which show no peptide, gave a signal in 4% of pairings with all light chain designs; the median was 2.64 and 95% of these signals were weaker than 1.59. No background was subtracted. Also given: how often the same scFv was detected with the empty control strains, with their mean in brackets.

CDR-L1,CDR-L2,CDR-L3,group,log10 Kd (nM) by replicate,empty controls
KVSQSVLYESRTGNSVA,WASTRES,QQYHRLTLS,Ctrl,1.25 / 0.66 / 0.59 / 0.52 / 0.23 / 0.52,0/18
KSSQSVSYESRNKNSVA,WASTRES,QQYHRLPLS,Ctrl,1.90 / n.d. / n.d. / n.d. / 1.83 / n.d.,1/18 (1.85)
KSSQSVLYEERNKNSVA,MASMRES,QQYHRLPLS,Ctrl,2.01 / 1.62 / 2.09 / 1.66 / 1.68 / 1.78,3/18 (2.30)
KSSQGVLMETRNKNSVA,HASTRES,QKYHRLPLS,Ctrl,n.d. / n.d. / n.d. / n.d. / n.d. / n.d.,0/18
KVSQGVLYEERNMNSVA,WASTHES,QQYHRLPLT,Ctrl,n.d. / n.d. / 2.35 / 1.64 / 2.20 / 1.79,0/18
KSPQSVLYESRNKNSVA,WASTREL,QQYHRLPNS,Ctrl,n.d. / n.d. / n.d. / n.d. / n.d. / n.d.,0/18
KSSPSVLYESRNKNSVA,HARTRES,QQYHRLPLS,Ctrl,n.d. / 1.11 / 0.69 / 1.18 / 1.56 / 1.93,0/18
KCSQSWLTESDDKNSVA,WASERES,QLYHRLPLS,Ctrl,n.d. / n.d. / n.d. / n.d. / n.d. / n.d.,0/18
KSSQSVGYESRNKNSVA,EASTRES,QMYHILPLS,Ctrl,0.91 / 1.20 / 0.84 / 0.84 / 1.33 / 0.84,0/18
KSSQSHLYENVNKNSVA,MASTRES,QAYHRLPLS,Ctrl,1.02 / 1.00 / 0.36 / 1.15 / 0.73 / 1.11,0/18
KSSQSVLFESRTKNSIA,AASTRES,QQYHRLPLS,Ctrl,n.d. / n.d. / n.d. / n.d. / n.d. / n.d.,0/18
KSEWSVLYESRNKNSVA,TASTRES,QQYHRLPLS,Ctrl,1.71 / n.d. / n.d. / 1.37 / 1.90 / n.d.,2/18 (1.36)
KSSQSVLYESNNKNSVA,WASTRES,QQYHRPPLS,Ctrl,1.94 / 1.75 / 2.08 / 2.50 / 2.79 / 1.47,0/18
KSSQSVLYESRNKESVA,WASTRES,QQYHRLPLS,Ctrl,n.d. / n.d. / n.d. / n.d. / n.d. / n.d.,0/18
KKSQSVLYESRNKNSVA,WASTGES,QQYHRLPLS,Ctrl,n.d. / n.d. / n.d. / n.d. / n.d. / 1.11,0/18
KSSQSVLYESRNKDMVA,GASTRES,QQYHRLPLS,Ctrl,n.d. / 2.28 / n.d. / n.d. / n.d. / 1.77,0/18
KSSQSTLQESRNKNSVA,WASTRIS,QQYHRLPLS,Ctrl,1.47 / 1.93 / 1.45 / 1.66 / 2.09 / 2.19,3/18 (3.06)
KSSQSVSYESRNKNSVA,WASTRES,QSYHRLPLS,Ctrl,n.d. / n.d. / 1.61 / 3.76 / 3.46 / n.d.,1/18 (3.03)
KSSQSWLYESRNKNSVA,GASTRES,QQYHRLPLS,Ctrl+En_HC,0.04 / -0.12 / -0.08 / 0.05 / -0.29 / 0.01; -0.18 / -0.24 / -0.31 / -0.35 / -0.53 / 0.06,2/36 (2.42)
KSSQSVLYESRNKNSVA,WASTRES,QQYHRLPFK,Ctrl,3.60 / 1.95 / 3.18 / 1.96 / 1.97 / n.d.,0/18
VMSQSVLYESRNKNSVA,WASTRES,QQYHRLPIS,Ctrl,0.85 / 1.05 / 1.21 / 1.09 / 1.23 / 0.94,1/18 (1.54)
KFSQSVLHESVNKNSVA,WASTRES,QQYHRLPLS,Ctrl,0.63 / 0.78 / 0.74 / 0.68 / 0.72 / 0.77,1/18 (2.81)
KSMQSVLPESRNKNSVA,WASGRES,QQYHRLPLS,Ctrl,n.d. / n.d. / n.d. / n.d. / n.d. / n.d.,0/18
KSSQSVLEESRNQNSVA,WASTRES,QQYHRLPLS,Ctrl,1.14 / 0.24 / 1.13 / 0.11 / 0.66 / 0.71,0/18
KSSQSVLYESRNYNSVA,WASTRES,QQYHRLPLS,Ctrl,2.25 / n.d. / n.d. / n.d. / 2.08 / n.d.,0/18
KSMQSVLYESRNKNSVA,WASERES,CQYHRLPLS,Ctrl,1.82 / n.d. / n.d. / n.d. / n.d. / n.d.,0/18
KSSQSILYESRNKNSVA,WASTRES,QQYHRLPLS,Ctrl,1.39 / 1.19 / 1.29 / 1.02 / 1.12 / 1.41,1/18 (2.41)
KSSQSVDYESRNKNSVA,GASTRES,QQYHRLPLS,Ctrl,0.00 / 0.09 / -0.06 / -0.22 / -0.12 / 0.22,3/18 (2.18)
KSSQSVLMESRNKNSVA,HASTRES,QQYHRLPLS,Ctrl,1.40 / 1.36 / 1.10 / 1.10 / 1.32 / 1.73,0/18
KSSQSVLYESPNKNGVA,EASTRES,QQYHRLPLS,Ctrl,0.52 / 0.86 / 1.04 / 0.46 / 0.67 / 0.65,1/18 (2.37)
KSSLSVLVESRNKNSVA,WAMTRES,QQYHRLPLS,Ctrl,n.d. / n.d. / 1.07 / n.d. / n.d. / n.d.,0/18
KSSQSVLYESLNENSVA,QASTRES,QQYDRLPLS,Ctrl,1.91 / 1.80 / 1.95 / 1.29 / 1.58 / 2.09,0/18
ISSQSVLYESRNKNPVA,AASTRES,QQYHRLPLS,Ctrl,1.62 / 1.39 / 1.56 / 1.77 / 2.06 / 1.47,0/18
KSSLSVLYPSRNENSVA,YASTRES,QQYHRLPLS,Ctrl,1.17 / 1.58 / 1.31 / 0.88 / 1.37 / 1.39,1/18 (2.49)
KSSQSILYESRQKNSVA,WASTRES,QQYHRLPLS,Ctrl,1.53 / 2.01 / 3.88 / 1.58 / 3.64 / 2.10,0/18
KSSNSVLIESRNKNSVA,WASTRES,QQHHRLPLS,Ctrl,n.d. / n.d. / n.d. / n.d. / n.d. / n.d.,0/18
RSMQSVLYESRNKNSVA,WASTREP,DQYHRLPLS,Ctrl,n.d. / n.d. / n.d. / 1.73 / n.d. / n.d.,0/18
KSSQSVLYESENKNSVA,EAETRES,QQYHRLPLS,Ctrl,1.15 / 1.31 / 1.68 / 0.81 / 2.14 / 1.10,1/18 (2.43)
KSSQSYLAESRNKNSVA,WASTRSS,QQYHRLPLS,Ctrl,1.13 / 1.44 / 1.52 / 1.73 / 1.28 / 1.66,1/18 (2.42)

6 of these entries, quoted again:

CDR-L1,CDR-L2,CDR-L3,group,log10 Kd (nM) by replicate,empty controls
KSSQSVLYESRNKESVA,WASTRES,QQYHRLPLS,Ctrl,n.d. / n.d. / n.d. / n.d. / n.d. / n.d.,0/18
KSSQSVLYESRNYNSVA,WASTRES,QQYHRLPLS,Ctrl,2.25 / n.d. / n.d. / n.d. / 2.08 / n.d.,0/18
KSSQSILYESRQKNSVA,WASTRES,QQYHRLPLS,Ctrl,1.53 / 2.01 / 3.88 / 1.58 / 3.64 / 2.10,0/18
KSSQSVLEESRNQNSVA,WASTRES,QQYHRLPLS,Ctrl,1.14 / 0.24 / 1.13 / 0.11 / 0.66 / 0.71,0/18
KSSQSYLAESRNKNSVA,WASTRSS,QQYHRLPLS,Ctrl,1.13 / 1.44 / 1.52 / 1.73 / 1.28 / 1.66,1/18 (2.42)
RSMQSVLYESRNKNSVA,WASTREP,DQYHRLPLS,Ctrl,n.d. / n.d. / n.d. / 1.73 / n.d. / n.d.,0/18